This note sets out measurements from patent US10934282B2, “Heteroaromatic modulators of the retinoid-related orphan receptor gamma” (LEO PHARMA A/S, priority 2016, dated 2021).

Amino acid sequences for entries named in this document (tags omitted). Chains listed by the source or under a name are the forms on record and can include a tag or linker. Residues count along the entry.
UniProt P51449, 265-518 with tags or gaps: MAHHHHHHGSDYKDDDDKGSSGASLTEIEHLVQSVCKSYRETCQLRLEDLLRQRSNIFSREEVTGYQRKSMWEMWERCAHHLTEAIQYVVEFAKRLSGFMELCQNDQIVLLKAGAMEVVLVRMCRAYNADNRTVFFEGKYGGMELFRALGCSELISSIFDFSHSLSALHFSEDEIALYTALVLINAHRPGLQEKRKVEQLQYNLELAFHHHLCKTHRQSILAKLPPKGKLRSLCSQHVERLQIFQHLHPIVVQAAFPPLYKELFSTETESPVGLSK

The target in assay [1] is human RORgt nuclear receptor (RORgT ligand binding domain protein) (Homo sapiens, UniProt P51449). The assay can be described thus: ROR-gamma binding assay (Scintillation Proximity Assay, displacement of [3H]-25-hydroxycholesterol). To be noted: read-out: ROR-gamma binding; EC50, SPA, 15 nM [3H]-25-Hydroxycholesterol, RORgT LBD 12 nM. (In a scintillation proximity assay essentially only radioactivity close to the scintillant gives light.)

Assay [2] deals with IL-17A in Human peripheral mononuclear cells. The assay can be described thus: Human PBMC IL-17A assay. To be noted: read-out: Human PBMC IL-17a; EC50, antiCD3/antiCD28-coated beads, 3 days, alpha-LISA. Format: cell-based. (In Alpha technology, singlet oxygen from a donor bead excites a nearby acceptor bead.)
The test system of assay [3] is IL-17A levels in human peripheral blood. The assay can be described thus: Human whole blood IL-17A assay. The format is cell-based. As to conditions: read-out: Human Whole blood IL-17A; EC50, Staphylococcus enterotoxin B 300 ng/mL, 3 days, alpha-LISA.

In the case of `Cc1c(CN2CCN(C(=O)OC(C)C)[C@@H](C)C2)cc(Cl)cc1Nc1nnc(C2COCCN2)o1` (stereo partly drawn), the EC50 turned out to be 55.9 nM in assay [1], 59.8 nM in assay [2] and 270 nM in assay [3].
